Here are results for 33 substances from article PMC2991585.

For the test, the target named is actin filament (barbed end) (UniProt P68135). Put plainly: seeded pyrene-actin polymerization.
“CPα(D252A)β (from UniProt P47753 1-286; P47757-2 1-272) (complex)” returned a Kd of 0.12 nM.
The result for “CPα(D270A)β (from UniProt P47753 1-286; P47757-2 1-272) (complex)” reads 0.25 nM; that for “CPα(E200A/D201G)β (from UniProt P47753 1-286; P47757-2 1-272) (complex)”, 3.7 nM.
The result for “CPα(E200R)β (from UniProt P47753 1-286; P47757-2 1-272) (complex)” reads 4.41 nM; that for “CPα(E233A/N237A)β (from UniProt P47753 1-286; P47757-2 1-272) (complex)”, 0.24 nM.
Then “CPα(K256A)β (from UniProt P47753 1-286; P47757-2 1-272) (complex)”, with 1.3 nM.
Substance “CPα(K268A)β (from UniProt P47753 1-286; P47757-2 1-272) (complex)” came in with a Kd of 0.88 nM. The Kd values of the last two substances are within 1.5-fold of each other.
The result for “CPα(K273A)β (from UniProt P47753 1-286; P47757-2 1-272) (complex)” reads 0.21 nM.
“CPα(Q248A)β (from UniProt P47753 1-286; P47757-2 1-272) (complex)” came in with a Kd of 0.11 nM.
The result for “CPα(R260A)β (from UniProt P47753 1-286; P47757-2 1-272) (complex)” reads 2.1 nM; that for “CPα(R266A)β (from UniProt P47753 1-286; P47757-2 1-272) (complex)”, 0.21 nM; that for “CPα(T241A/E245A)β (from UniProt P47753 1-286; P47757-2 1-272) (complex)”, 0.16 nM.
Then “CPα(T249A/T253A)β (from UniProt P47753 1-286; P47757-2 1-272) (complex)”, with 0.17 nM; and “CPα(ΔC28)β (from UniProt P47753 1-258; P47757-2 1-272) (complex)”, with 2500 nM.
Then “CPαβ(A265S) (from UniProt P47753 1-286; P47757-2 1-272) (complex)”, with 0.2 nM.
Substance “CPαβ(D58A) (from UniProt P47753 1-286; P47757-2 1-272) (complex)” showed an equilibrium dissociation constant (Kd) of 0.11 nM.
As for “CPαβ(D200A) (from UniProt P47753 1-286; P47757-2 1-272) (complex)”, the Kd was determined as 0.2 nM.
For the substance “CPαβ(E256A/N260A) (from UniProt P47753 1-286; P47757-2 1-272) (complex)”, the Kd came out at 0.44 nM. This Kd is about 2.2-fold higher than that of the substance before.
The result for “CPαβ(E256S/N260S) (from UniProt P47753 1-286; P47757-2 1-272) (complex)” reads 0.36 nM; that for “CPαβ(K53A) (from UniProt P47753 1-286; P47757-2 1-272) (complex)”, 0.16 nM.
For the substance “CPαβ(K142A) (from UniProt P47753 1-286; P47757-2 1-272) (complex)”, the Kd turned out to be 0.24 nM. Compared with the last substance, the Kd is about 1.5-fold higher.
Then “CPαβ(K143A) (from UniProt P47753 1-286; P47757-2 1-272) (complex)”, with 0.2 nM.
Then “CPαβ(K199A) (from UniProt P47753 1-286; P47757-2 1-272) (complex)”, with 0.29 nM; and “CPαβ(K235A) (from UniProt P47753 1-286; P47757-2 1-272) (complex)”, with 0.26 nM.
Then “CPαβ(L258S) (from UniProt P47753 1-286; P47757-2 1-272) (complex)”, with 1.3 nM; and “CPαβ(L258S/L262S/A265S/L266S) (from UniProt P47753 1-286; P47757-2 1-272) (complex)”, with 6.9 nM; and “CPαβ(L258S/L262S/L266S) (from UniProt P47753 1-286; P47757-2 1-272) (complex)”, with 9.7 nM.
“CPαβ(L262S) (from UniProt P47753 1-286; P47757-2 1-272) (complex)” came in with a Kd of 4 nM.
Then “CPαβ(L266S) (from UniProt P47753 1-286; P47757-2 1-272) (complex)”, with 2.61 nM; and “CPαβ(N222A/S226A) (from UniProt P47753 1-286; P47757-2 1-272) (complex)”, with 0.25 nM; and “CPαβ(R215A/D219A) (from UniProt P47753 1-286; P47757-2 1-272) (complex)”, with 0.32 nM.
The result for “CPαβ(R225A) (from UniProt P47753 1-286; P47757-2 1-272) (complex)” reads 1.36 nM; that for “capping protein (mouse CP alpha1/beta2 heterodimer), wild type (from UniProt P47753 1-286; P47757-2 1-272) (complex)”, 0.14 nM.
